Molecules are shown by their SMILES. The entries are a selection whose mix differs from that of the whole data set. Some results for these compounds are left out of this collection, so the calls shown say nothing about other tests. Results filed as inconclusive are left out. Active and inactive are the calls of the source. Calls follow the shape of the dose curve; as a rule, active = well fitted inhibition curve with a large enough effect; inconclusive = small, poorly fitted or top-dose-only effect; inactive = no such curve, though single readings can be large or run the other way.
% is scaled to controls: 0 for no effect and ±100 for the full control effect.

Chains of the proteins cited; added tags and fusions are not shown.
UniProt Q9Y468, whole entry: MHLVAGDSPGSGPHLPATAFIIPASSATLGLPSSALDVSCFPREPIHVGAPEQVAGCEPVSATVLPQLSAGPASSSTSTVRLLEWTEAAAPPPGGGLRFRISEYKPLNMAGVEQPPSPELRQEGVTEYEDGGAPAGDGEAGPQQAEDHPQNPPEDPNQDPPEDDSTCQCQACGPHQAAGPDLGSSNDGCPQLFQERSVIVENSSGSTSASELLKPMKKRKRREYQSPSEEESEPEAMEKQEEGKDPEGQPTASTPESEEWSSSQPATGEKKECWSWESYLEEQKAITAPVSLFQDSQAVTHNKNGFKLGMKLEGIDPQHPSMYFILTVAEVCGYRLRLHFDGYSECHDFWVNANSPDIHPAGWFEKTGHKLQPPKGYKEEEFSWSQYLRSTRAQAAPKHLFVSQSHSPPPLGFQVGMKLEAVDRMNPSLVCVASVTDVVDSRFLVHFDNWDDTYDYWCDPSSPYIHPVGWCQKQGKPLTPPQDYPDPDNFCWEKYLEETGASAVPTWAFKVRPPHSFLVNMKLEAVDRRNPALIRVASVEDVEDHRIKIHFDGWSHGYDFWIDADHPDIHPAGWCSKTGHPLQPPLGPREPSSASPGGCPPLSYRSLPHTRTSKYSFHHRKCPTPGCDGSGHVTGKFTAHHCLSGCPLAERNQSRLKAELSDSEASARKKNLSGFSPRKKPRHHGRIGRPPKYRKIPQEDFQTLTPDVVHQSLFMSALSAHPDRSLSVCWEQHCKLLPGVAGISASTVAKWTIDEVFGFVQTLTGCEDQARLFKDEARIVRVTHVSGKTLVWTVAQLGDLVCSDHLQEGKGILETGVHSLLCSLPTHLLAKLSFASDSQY

This experiment addresses Lethal(3)malignant brain tumor-like protein 1 (Homo sapiens) (UniProt Q9Y468). Put plainly: qHTS Assay for the Inhibitors of L3MBTL1. Also: nearly all actives have a fitted effect of over 60% in size. The note with it: AlphaScreen L3MBTL1–H3K9me1 peptide binding; at 57.1 µM (top of the series). In general terms: Quantitative high-throughput screening tests each substance at several concentrations.
In the case of `O=C(OC1CN2CCC1CC2)C(CO)(c1ccccc1)c1ccccc1` (stereo not given), the activity, negative = inhibition was inactive: 2.03%.

In the case of `COc1ccc(Br)c(C(=O)NCC2(N3CCCCC3)CCCCC2)c1`, the activity, negative = inhibition is inactive: -1.67%.

With `CN(C)c1cccc(C(=O)NCC2(N(C)C)CCCCC2)c1`, the activity, negative = inhibition was inactive: -0.422%.

With `COc1cccc(C(=O)NCC2(N3CCCCC3)CCCCC2)c1`, the activity, negative = inhibition was inactive: -5.28%.

With `Cc1ccccc1C(=O)NCC1(N2CCCCC2)CCCCC1`, the activity, negative = inhibition was inactive: -4.33%.

For the molecule `CN(C)C1CCCC1OC(=O)C(O)(c1ccccc1)c1ccccc1` (stereo not given), the activity, negative = inhibition is inactive: 10.5%.

For `C=CCN1CCN(CCOC(=O)C(O)(c2ccccc2)c2ccccc2)CC1`, the activity, negative = inhibition is inactive: -8.1%.

`CCN1CCCC(OC(=O)C2(O)c3ccccc3C=Cc3ccccc32)C1` (stereo not given): the activity, negative = inhibition was inactive: -2.85%.

On to `CC(C)N1C(=O)CC2(CCN(CCOC(=O)C(O)(c3ccccc3)c3ccccc3)CC2)C1=O`, for which the activity, negative = inhibition is inactive: 8.19%.

Consider `CCN(CC)CC(C)C(C)OC(=O)C(O)(c1ccccc1)c1ccccc1` (stereo not given), for which the activity, negative = inhibition is inactive: 3.04%.

Source of the values: PubChem BioAssay AID485360 (National Center for Advancing Translational Sciences (NCATS), 2010).
